# pIC50: −log10 of the molar value.
# Molecular target: T1, Polyamine deacetylase HDAC10 (Homo sapiens, UniProt Q969S8)
# T1 sequence (Q969S8 whole entry): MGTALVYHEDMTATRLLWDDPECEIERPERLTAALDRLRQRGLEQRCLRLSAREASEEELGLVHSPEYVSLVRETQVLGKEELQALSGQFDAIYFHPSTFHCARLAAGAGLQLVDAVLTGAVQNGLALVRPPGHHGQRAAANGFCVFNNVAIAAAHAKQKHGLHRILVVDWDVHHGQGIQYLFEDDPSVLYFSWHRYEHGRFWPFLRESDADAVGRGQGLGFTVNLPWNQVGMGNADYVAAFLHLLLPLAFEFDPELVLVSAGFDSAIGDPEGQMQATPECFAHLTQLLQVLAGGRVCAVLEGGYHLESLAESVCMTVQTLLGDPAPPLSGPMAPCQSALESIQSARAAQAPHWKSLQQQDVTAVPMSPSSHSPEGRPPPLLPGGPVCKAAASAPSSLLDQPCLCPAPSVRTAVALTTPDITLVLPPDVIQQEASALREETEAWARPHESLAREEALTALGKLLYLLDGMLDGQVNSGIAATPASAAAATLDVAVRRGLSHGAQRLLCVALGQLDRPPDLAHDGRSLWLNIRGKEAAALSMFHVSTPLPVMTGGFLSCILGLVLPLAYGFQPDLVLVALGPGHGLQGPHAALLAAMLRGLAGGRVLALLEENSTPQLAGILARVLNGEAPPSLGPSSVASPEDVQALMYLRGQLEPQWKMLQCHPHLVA
compound,measurement,value
O=C(CCCCCCC(=O)Nc1ccccc1)NO [VORINOSTAT],pIC50,7.32
